In patent US20240108745A1, “BIOACTIVE SUBSTANCE CONJUGATE, PREPARATION METHOD THEREFOR AND USE THEREOF” (MEDILINK THERAPEUTICS (SUZHOU) CO., LTD., priority 2021, published 2024):

Columns and labels:
[1] = molecular target: B7H3 on tumor cells (MCF-7, A549, PC-3) (human) (UniProt Q5ZPR3); assay: flow cytometry on A549 tumor cells
[2] = molecular target: B7H3 on tumor cells (MCF-7, A549, PC-3) (human) (UniProt Q5ZPR3); assay: flow cytometry on MCF-7 tumor cells
[3] = molecular target: B7H3 on tumor cells (MCF-7, A549, PC-3) (human) (UniProt Q5ZPR3); assay: flow cytometry on MCF-7 tumor cells; reference B7H3-C1
[4] = molecular target: B7H3 on tumor cells (MCF-7, A549, PC-3) (human) (UniProt Q5ZPR3); assay: flow cytometry on A549 tumor cells; reference B7H3-C1
[5] = molecular target: B7H3 on tumor cells (MCF-7, A549, PC-3) (human) (UniProt Q5ZPR3); assay: flow cytometry on PC-3 tumor cells
[6] = molecular target: B7H3 on tumor cells (MCF-7, A549, PC-3) (human) (UniProt Q5ZPR3); assay: flow cytometry on MCF-7 tumor cells; reference control antibody 2 (B7H3-C2)
[7] = molecular target: B7H3 on tumor cells (MCF-7, A549, PC-3) (human) (UniProt Q5ZPR3); assay: flow cytometry on PC-3 tumor cells; reference B7H3-C1
[8] = molecular target: B7H3 on tumor cells (MCF-7, A549, PC-3) (human) (UniProt Q5ZPR3); assay: flow cytometry on PC-3 tumor cells; reference B7H3-C2

EC50 [1] [nM]	Maximum MFI [1]	EC50 [2] [nM]	Maximum MFI [2]	maximum fluorescence signal value, higher than that of B7H3-C1 [3] [%]	maximum fluorescence signal value, higher than that of B7H3-C1 [4] [%]	EC50 [5] [nM]	Maximum MFI [5]	maximum fluorescence signal value, times that of control antibody 2 [6] [times]	maximum fluorescence signal value, times that of B7H3-C1 [7] [times]	maximum fluorescence signal value, times that of B7H3-C2 [8] [times]	Binder
0.322	11300	0.524	94500	12	36	–	–	–	–	–	anti-B7H3 antibody 1D1-01 (antibody, human IgG1, kappa, V domains shown) VH: EGQLVESGGGLVQPGGSLRLSCAASGFTISSYWMNWVRQAPGKGLEWVANIKQDGSEKYYVDSVQGRFTISRDNAKNSLYLQMNSLRAEDTAVYYCARRMYSSGWYWGAFDMWGQGTMVTVSS VL: EIVLTQSPGTLSLSPGERATLSCRASQSVSSIYLAWNQQKPGQAPRLLIYGTFKRATGIPDRFSGSGSGTDFTLTISSLEPEDFAVYYCQQYDTSSITFGQGTRLEIKR
0.15	84800	0.398	77700	23	77	0.063	9730	2.78	1.51	4.48	anti-B7H3 antibody 2E3-02 (antibody, human IgG1, kappa, V domains shown) VH: EVQLLESGGGLVQPGGSLRLSCAASGFTFSSYAMNWVRQAPGKGLEWVSGISGSGGSTYYADSVQGRFTISRDNSKNTLYLQMNSLRAEDTAVYYCAKARSGYDYFFDYWGQGTLVTVSS VL: EIVLTQSPGTLSLSPGERATLSCRASQRISSSFLAWYQQKPGQAPSLLIYGASSRATGIPDRFSGSGSGTDFTLTISSLEPEDFAVFYCQQYSNSPLTFGGGTKVEIKR
